Target: T1, 5-HT4 receptor (Rattus norvegicus, UniProt Q62758)
T1 construct: The inner smooth muscle tube of the muscularis mucosae is isolated and mounted for isometric tension recording; from tissue; host or cells: rat oesophageal tunica muscularis mucosae
Test: rat oesophageal tunica muscularis mucosae, relaxation to 5-HT
Assay type: cell-based

Sequences of proteins named here, by UniProt entry; tags and fusion partners are left off. A change or cut given only in a name is not applied to a line headed by its entry.
UniProt Q62758: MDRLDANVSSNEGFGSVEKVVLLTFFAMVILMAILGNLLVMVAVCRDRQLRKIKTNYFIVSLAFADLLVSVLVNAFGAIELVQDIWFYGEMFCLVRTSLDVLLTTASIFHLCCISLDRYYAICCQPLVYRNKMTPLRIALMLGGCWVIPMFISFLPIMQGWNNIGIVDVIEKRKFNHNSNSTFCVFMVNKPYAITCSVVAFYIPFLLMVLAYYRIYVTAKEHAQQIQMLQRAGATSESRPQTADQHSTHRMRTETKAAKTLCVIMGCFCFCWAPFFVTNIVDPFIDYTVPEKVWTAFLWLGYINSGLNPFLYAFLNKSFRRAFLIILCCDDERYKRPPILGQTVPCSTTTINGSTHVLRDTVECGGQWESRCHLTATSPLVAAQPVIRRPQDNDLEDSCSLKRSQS

Q: With `NCCc1c[nH]c2ccc(O)cc12` [5-HT, reference compound] as the molecule, how does the EC50 read?
A: 7.94 nM
